Test results: US12365850B2, “Water-miscible functional fluid, undiluted stock of water-miscible functional fluid, sterilizer for water-miscible functional fluid, and method of sterilizing water-miscible function fluid” (priority 2020, dated 2025)

Test: pH drop suppression test of water-miscible cutting fluid (circulation and blue LED irradiation)
Format: physicochemical

Structure (SMILES): CCCCOP(OCCCC)OCCCC
- pH change rate (%) (100%×(pH at preparation−pH after continuing use)/(pH at preparation), riboflavin cutting fluid with the named antioxidant): 4.7%
- Evaluation of pH drop supression (class by pH change rate, riboflavin cutting fluid with the named antioxidant): A (pH change rate of 15% or lower)
- pH change (riboflavin cutting fluid containing the named antioxidant, one month, Table 3 (same values as Table 2)): 0.4
